Earlier results as cited in US8778643B2, “Methods for increasing lipid levels and producing triacylglycerols in algae” (priority 2012, dated 2014).
pIC50: −log10 of the molar value.

Amino acid sequences for entries named in this document (tags omitted). Chains listed by the source or under a name are the forms on record and can include a tag or linker.
UniProt P30305, other isoform, or with tags, fused parts or gaps: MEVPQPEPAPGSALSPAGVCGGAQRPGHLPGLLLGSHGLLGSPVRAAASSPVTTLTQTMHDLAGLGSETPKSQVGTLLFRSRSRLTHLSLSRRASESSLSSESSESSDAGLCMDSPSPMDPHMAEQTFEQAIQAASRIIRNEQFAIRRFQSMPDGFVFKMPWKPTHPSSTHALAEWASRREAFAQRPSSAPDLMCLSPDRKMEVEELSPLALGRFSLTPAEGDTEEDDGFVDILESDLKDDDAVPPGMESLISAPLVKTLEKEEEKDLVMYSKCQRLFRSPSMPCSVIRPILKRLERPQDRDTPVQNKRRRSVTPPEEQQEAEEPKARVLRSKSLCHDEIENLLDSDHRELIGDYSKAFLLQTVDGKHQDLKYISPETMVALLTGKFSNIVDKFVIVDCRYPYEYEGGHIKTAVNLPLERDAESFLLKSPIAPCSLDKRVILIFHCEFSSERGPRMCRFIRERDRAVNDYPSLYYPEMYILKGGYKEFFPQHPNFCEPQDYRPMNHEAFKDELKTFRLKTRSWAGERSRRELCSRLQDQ

How the values were obtained:
CDC25 phosphatase 25B3 = CDC25 phosphatase 25B3 (Homo sapiens, UniProt P30305); conditions: cited from earlier work
CDC25 phosphatase 25B2 = CDC25 phosphatase 25B2 (Homo sapiens, UniProt P30305); conditions: cited from earlier work

In the case of “6-Chloro-7-(2-morpholin-4-yl-ethylamino)-quinoline-5,8-dione [CDC25 Phosphatase Inhibitor I]”, the pIC50 (CDC25 phosphatase 25B3) is listed as 5.20 and the pIC50 (CDC25 phosphatase 25B2) is listed as 5.41.
